Earlier results in patent publication US11000512B2, “Use of DDX3 inhibitors as antiproliferative agents” (AZIENDA OSPEDALIERA UNIVERSITARIA SENESE, priority 2016, dated 2021).

By UniProt entry, the sequences of proteins in these tests, tags left out.
UniProt O00571, whole entry: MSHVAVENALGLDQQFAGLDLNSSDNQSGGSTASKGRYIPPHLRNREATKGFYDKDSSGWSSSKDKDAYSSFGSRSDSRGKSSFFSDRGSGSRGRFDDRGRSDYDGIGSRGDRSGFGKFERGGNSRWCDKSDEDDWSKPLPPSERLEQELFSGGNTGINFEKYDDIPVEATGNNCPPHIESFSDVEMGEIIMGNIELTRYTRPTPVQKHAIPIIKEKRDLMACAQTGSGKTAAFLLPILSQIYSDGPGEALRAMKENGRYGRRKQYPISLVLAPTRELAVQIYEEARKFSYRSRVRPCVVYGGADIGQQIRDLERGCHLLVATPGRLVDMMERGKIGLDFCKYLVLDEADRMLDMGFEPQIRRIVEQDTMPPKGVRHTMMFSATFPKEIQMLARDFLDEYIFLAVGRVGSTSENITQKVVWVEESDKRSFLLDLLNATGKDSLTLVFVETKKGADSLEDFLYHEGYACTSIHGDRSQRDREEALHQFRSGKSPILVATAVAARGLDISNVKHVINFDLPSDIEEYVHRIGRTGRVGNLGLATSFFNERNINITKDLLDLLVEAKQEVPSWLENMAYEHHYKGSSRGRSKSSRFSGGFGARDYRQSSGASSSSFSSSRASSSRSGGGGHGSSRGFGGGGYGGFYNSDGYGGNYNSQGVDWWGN

Target: ATPase activity of DDX3 (Homo sapiens, UniProt O00571)
Details: on DDX3; second-generation and triazine inhibitors, 2011; cited from earlier work

Structure (SMILES): O=C1/C(=C/c2c(NCCCO)nc3ccccn3c2=O)SC(=S)N1CCc1ccccc1
- Ki: 200 nM
